# In patent US20250361280A1 (Protagonist Therapeutics, Inc., priority 2022, published 2025):
# pIC50: −log10 of the molar value.
# Molecular target: T1, ferroportin (Homo sapiens, UniProt Q9NP59)
# T1 sequence (Q9NP59 1-571): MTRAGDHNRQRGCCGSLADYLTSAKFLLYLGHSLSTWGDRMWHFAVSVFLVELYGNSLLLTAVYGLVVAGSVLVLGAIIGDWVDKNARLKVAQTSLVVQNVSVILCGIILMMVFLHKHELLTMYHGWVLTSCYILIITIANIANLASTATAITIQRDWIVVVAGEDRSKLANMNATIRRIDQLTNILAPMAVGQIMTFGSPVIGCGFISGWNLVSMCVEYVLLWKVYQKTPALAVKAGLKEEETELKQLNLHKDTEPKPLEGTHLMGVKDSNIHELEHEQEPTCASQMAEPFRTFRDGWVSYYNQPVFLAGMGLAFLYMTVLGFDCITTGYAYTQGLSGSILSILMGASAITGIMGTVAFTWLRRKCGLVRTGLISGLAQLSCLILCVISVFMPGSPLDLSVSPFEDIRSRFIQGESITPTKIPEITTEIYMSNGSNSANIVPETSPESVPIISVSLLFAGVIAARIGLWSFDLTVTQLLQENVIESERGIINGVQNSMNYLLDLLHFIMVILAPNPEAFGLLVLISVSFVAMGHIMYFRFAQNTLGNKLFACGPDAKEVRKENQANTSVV
# Assay: FPN internalization assay (FPN activity assay), loss of ferroportin-GFP fluorescence
# Type: cell-based
# Details: not given
row,Compound,pIC50
1,CC(C)CC(=O)N[C@@H](CCC(=O)O)C(=O)N[C@H](C(=O)N[C@@H](Cc1c[nH]cn1)C(=O)N[C@H](C(=O)N1CCC[C@H]1C(=O)NCCCCCCCCCCCc1ccccc1)C(c1ccccc1)c1ccccc1)[C@@H](C)O [compound 50],< 6.30
2,CC(C)CC(=O)N[C@@H](CCC(=O)O)C(=O)N[C@H](C(=O)N[C@@H](Cc1c[nH]cn1)C(=O)N[C@H](C(=O)N1CCC[C@H]1C(=O)N[C@@H](CCCCN)C(=O)N(CC1CCCCC1)C(C(=O)N[C@@H](CCCCN)C(=O)O)c1ccccc1)C(c1ccccc1)c1ccccc1)[C@@H](C)O (stereo partly shown) [compound 181],< 6.30
3,CCCCCCc1ccc(CCCCNC(=O)CN(C)C(=O)[C@@H]2CCCN2C(=O)[C@@H](NC(=O)[C@H](Cc2c[nH]cn2)NC(=O)[C@@H](NC(=O)[C@H](CCC(=O)O)NC(=O)CC(C)C)[C@@H](C)O)C(c2ccccc2)c2ccccc2)cc1 [compound 51],< 6.30
4,CC(C)CC(=O)N[C@@H](CCC(=O)O)C(=O)N[C@H](C(=O)N[C@@H](Cc1c[nH]cn1)C(=O)N[C@H](C(=O)N1CCC[C@H]1C(=O)N[C@H](CCCCN)C(=O)N(Cc1ccccc1)C(CCc1ccccc1)C(=O)O)C(c1ccccc1)c1ccccc1)[C@@H](C)O (stereo partly shown) [compound 146],6.30 to 7.00
5,CCCCCCCCCCCCCCCC(=O)NCCOCCOCCOCCOCCOCCOCCOCCOCCOCCOCCOCCOCCC(=O)NCCCCCC(=O)NCCCC[C@H](NC(=O)[C@@H]1CCCN1C(=O)[C@@H](NC(=O)[C@H](Cc1c[nH]cn1)NC(=O)[C@@H](NC(=O)[C@H](CCC(=O)O)NC(=O)CC(C)C)[C@@H](C)O)C(c1ccccc1)c1ccccc1)C(=O)N(CC1CCCCC1)C(C(=O)N[C@@H](CCCCN)C(=O)O)c1ccccc1 (stereo partly shown) [compound 180],7.52 to 9.00
6,CC(C)CC(=O)N[C@@H](CCC(=O)O)C(=O)N[C@H](C(=O)N[C@@H](Cc1c[nH]cn1)C(=O)N[C@H](C(=O)NCCCCCCCCCCCc1ccccc1)C(c1ccccc1)c1ccccc1)[C@@H](C)O [compound 49],< 6.30
7,O=C(CNCc1nc(C(=O)NCc2ncccc2F)co1)N[C@@H](Cc1c[nH]cn1)C(=O)N[C@H](C(=O)N1CCC[C@H]1C(=O)NCCCCc1ccccc1)C(c1ccccc1)c1ccccc1 [compound 134],< 6.30

# Same assay, conditions: Table 1C; HEK293 cells stably expressing ferroportin-GFP, compound at least 18 hours; read-out: IC50: FPN
row,Compound,pIC50
1,CC(C)CC(=O)N[C@@H](CCC(=O)O)C(=O)N[C@H](C(=O)N[C@@H](Cc1c[nH]cn1)C(=O)N[C@H](C(=O)O)C(c1ccccc1)c1ccccc1)[C@@H](C)O [compound 8],< 6.30
2,CCCCCCCCCCCCCCCC(=O)NCCCCCC(=O)NCCCC[C@H](NC(=O)[C@@H]1CCCN1C(=O)[C@@H](NC(=O)[C@H](Cc1c[nH]cn1)NC(=O)[C@H]([C@@H](C)O)N(C)C(=O)[C@H](CCC(=O)OC)NC(=O)CC(C)C)C(c1ccccc1)c1ccccc1)C(=O)NCCCCCc1ccccc1 [compound 3],< 6.30
3,CC(C)CC(=O)N[C@@H](CCC(=O)O)C(=O)N[C@H](C(=O)N[C@@H](Cc1c[nH]cn1)C(=O)N[C@H](C(=O)N1CCC[C@H]1C(=O)O)C(c1ccccc1)c1ccccc1)[C@@H](C)O [compound 9],< 6.30

# Results, then the compound that gave them:
row,pIC50,Compound
1,7.00 to 7.52,CCCCCCCCCCCCCCCC(=O)NCCCCCC(=O)NCCCC[C@H](NC(=O)[C@H]1CSSC[C@H](NC(=O)[C@H](CCC(=O)O)NC(=O)CC(C)C)C(=O)N[C@@H](Cc2c[nH]cn2)C(=O)N[C@@H](C(c2ccccc2)c2ccccc2)C(=O)N1)C(=O)N[C@H](C(N)=O)C(c1ccccc1)c1ccccc1 [compound 32]
2,< 6.30,CCCCCCCCCCCCCCCC(=O)NCC[N+](C)(C)CC(=O)NCCCC[C@H](NC(=O)[C@@H]1CSSC[C@H](NC(=O)[C@H](CCC(=O)OC)NC(=O)CC(C)C)C(=O)N[C@@H](Cc2cnc[nH]2)C(=O)N[C@@H](C(c2ccccc2)c2ccccc2)C(=O)N1)C(=O)NCCCCCc1ccccc1 [compound 14]
3,< 6.30,CC(C)CC(=O)N[C@@H](CCC(=O)O)C(=O)N[C@H](C(=O)N[C@@H](Cc1c[nH]cn1)C(=O)N[C@H](C(=O)N1CCC[C@H]1C(=O)N(C)CC(=O)O)C(c1ccccc1)c1ccccc1)[C@@H](C)O [compound 10]
4,< 6.30,CCCCCCCCCCCCCCCC(=O)NCCCCCC(=O)NCCCC[C@H](NC(=O)[C@@H]1C[C@H]2CN1C(=O)[C@H](C(c1ccccc1)c1ccccc1)NC(=O)[C@H](Cc1c[nH]cn1)NC(=O)[C@H]([C@@H](C)O)NC(=O)[C@@H](NC(=O)CC(C)C)CCCC(=O)N2)C(=O)NCCCCCc1ccccc1 [compound 13]
5,< 6.30,COC(=O)CC[C@H](NC(=O)CC(C)C)C(=O)N[C@H](C(=O)N[C@@H](Cc1c[nH]cn1)C(=O)N[C@H](C(=O)N1CCC[C@H]1C(=O)N1CCC[C@@H]1C(=O)NCC(=O)N(C)[C@@H](CCCCNC(=O)COCCOCCNC(=O)COCCOCCNC(=O)[C@H](CN)NC(=O)CCCCCCCCCCCCCCCCC(=O)O)C(=O)N[C@H](CC(=O)N[C@H](CCCCN)C(N)=O)Cc1ccccc1)C(c1ccccc1)c1ccccc1)[C@@H](C)O [compound 47]
6,< 6.30,COC(=O)CC[C@H](NC(=O)CC(C)C)C(=O)N(C)[C@H](C(=O)N[C@@H](Cc1c[nH]cn1)C(=O)N[C@H](C(=O)N1CCC[C@H]1C(=O)N(C)[C@@H](CCCCNC(=O)C[N+](C)(C)CCNC(=O)CCCCCCCCCCCCCCCCC(=O)O)C(=O)N[C@H](C(=O)N[C@H](CCCCN)C(N)=O)C(c1ccccc1)c1ccccc1)C(c1ccccc1)c1ccccc1)[C@@H](C)O [compound 41]
7,7.00 to 7.52,CCCCCCCCCCCCCCCC(=O)NCCCCCC(=O)NCCCC[C@H](NC(=O)[C@@H]1CCCN1C(=O)[C@@H](NC(=O)[C@H](Cc1c[nH]cn1)NC(=O)[C@@H](NC(=O)[C@H](CCC(=O)OC)NC(=O)CC(C)C)[C@@H](C)O)C(c1ccccc1)c1ccccc1)C(=O)NCCCCCc1ccccc1 [compound 19]

# Same assay, conditions: Table 1D; HEK293 cells stably expressing ferroportin-GFP, compound at least 18 hours; read-out: IC50: FPN
row,pIC50,Compound
1,7.52 to 9.00,CCCCCCCCCCCCCCCC(=O)NCCOCCOCCOCCOCCOCCOCCOCCOCCOCCOCCOCCOCCC(=O)NCCCC[C@H](NC(=O)[C@@H]1CCCN1C(=O)[C@@H](NC(=O)[C@H](Cc1c[nH]cn1)NC(=O)[C@@H](NC(=O)[C@H](CCC(=O)O)NC(=O)CC(C)C)[C@@H](C)O)C(c1ccccc1)c1ccccc1)C(=O)NCCCCc1ccccc1 [compound 209]
2,7.52 to 9.00,CCCCCCCCCCCCCCCC(=O)NCC[N+](C)(C)CC(=O)NCCOCCOCC(=O)NCCOCCOCC(=O)NCCCC[C@H](NC(=O)[C@@H]1CSSC[C@H](NC(=O)[C@H](CCC(=O)O)NC(=O)CC(C)C)C(=O)N[C@@H](Cc2c[nH]cn2)C(=O)N[C@@H](C(c2ccccc2)c2ccccc2)C(=O)N1)C(=O)NCC(c1ccccc1)c1ccccc1 [compound 215]
3,7.52 to 9.00,CC(C)CC(=O)NCCCC[C@H](NC(=O)[C@@H]1CCCN1C(=O)[C@@H](NC(=O)[C@H](Cc1c[nH]cn1)NC(=O)[C@@H](NC(=O)[C@H](CCC(=O)O)NC(=O)CC(C)C)[C@@H](C)O)C(c1ccccc1)c1ccccc1)C(=O)NCCCCc1ccccc1 [compound 204]
4,< 6.30,NCC(=O)N[C@@H](Cc1c[nH]cn1)C(=O)N[C@H](C(=O)N1CCC[C@H]1C(=O)NCCCCc1ccccc1)C(c1ccccc1)c1ccccc1 [compound 133]
5,< 6.30,CC(C)CC(=O)N[C@@H](CCC(=O)O)C(=O)N[C@H](C(=O)N[C@@H](Cc1c[nH]cn1)C(=O)N[C@H](C(=O)N1CCC[C@H]1C(N)=O)C(c1ccccc1)c1ccccc1)[C@@H](C)O [compound 143]
6,7.00 to 7.52,CCCCCC(=O)NCCCC[C@H](NC(=O)[C@@H]1CCCN1C(=O)[C@@H](NC(=O)[C@H](Cc1c[nH]cn1)NC(=O)[C@@H](NC(=O)[C@H](CCC(=O)O)NC(=O)CC(C)C)[C@@H](C)O)C(c1ccccc1)c1ccccc1)C(=O)NCCCCc1ccccc1 [compound 205]
7,< 6.30,NCCCC[C@@H](NC(=O)[C@@H]1CCCN1C(=O)[C@@H](NC(=O)[C@H](Cc1c[nH]cn1)NC(=O)CNCc1nc(C(=O)NCc2ncccc2F)co1)C(c1ccccc1)c1ccccc1)C(=O)NCCCCc1ccccc1 [compound 132]
8,< 6.30,NCCCC[C@@H](NC(=O)[C@@H]1CCCN1C(=O)[C@@H](NC(=O)[C@H](Cc1c[nH]cn1)NC(=O)CN)C(c1ccccc1)c1ccccc1)C(=O)NCCCCc1ccccc1 [compound 131]
